Screens (PubChem)
MLLE-PAM2 inh: inhibitors of microRNA-mediated deadenylation, human PABP1 MLLE binding. P11940. GST-MLLE / FITC-PAM2 fluorescence polarization. inhibition, % at 20 µM. hit rate 0.36% among 360,000. AID 588489; in the data active means inhibition above about 35%, passing the limit was not always enough;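 further: plate controls were DMSO wells with GST-MLLE for no effect and wells lacking GST-MLLE protein for full effect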
Pemphigus Ab inh: human desmoglein-3 autoantibody binding inhibition | P32926 | DSG3-coupled beads, scFv-anti-DSG3-GFP binding, flow cytometry; hits give low values | hit rate 0.48% among 310,000 | binding (percent of control), % at 10 µM;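 active means binding more than 3 SD below its plate's average and above zero; inconclusive means below that plate limit but binding exactly zero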;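 further: hits lower antibody fragment binding to DSG3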
eIF4H inh: inhibitors of RNA binding by human eIF4H; Q15056; eIF4H fluorescence polarization binding assay; inhibition, % at 35 µM; hit rate 0.94% among 290,000;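 further: calls also rest on retests at 20 µM and on dose response follow-up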
Yeast UUG start: modulators of yeast start codon fidelity, primary screen, whole organism, S. cerevisiae, single point, plate reader | AID 602363, 2012 | actives 0.13% (n = 350,000) | activity score, % at 18.7 µM | S. cerevisiae UUG-firefly luciferase reporter, luminescence/redox ratio;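 active means replicate mean at a twofold rise or more, about +100% in these data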;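 further: firefly luciferase made from a UUG start codon reports start codon fidelity; reporter light over untreated wells divided by growth signal over untreated wells; some hits fall short of that in this replicate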
PABP FP inh: PABP-poly(A) binding inhibition | P11940 | calls only at 35 µM | hit rate 1% among 290,000 | PABP-poly(A) RNA binding, fluorescence polarization;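 further: calls also rest on retests at 20 µM and on dose response follow-up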
* = called active by the depositor; i = inactive; u = inconclusive; x = no result given; + = active, no number. Sampled rows, rich in hits. Any-hit rate of the full collection: about 1.5%. Unless noted, how the calls were made is not given here.

Keys – A = MLLE-PAM2 inh; B = Pemphigus Ab inh; C = eIF4H inh; D = Yeast UUG start; E = PABP FP inh
O=C(CN1C(=O)S/C(=C/C=C/c2ccccc2)C1=O)Nc1ccc(C(=O)O)cc1
  A: 11; B: 110; C: 0; D: x; E: i
O=C(CCCN1C(=O)/C(=C/c2ccccc2)SC1=S)Nc1ccc(C(=O)O)c(O)c1
  A: 16; B: 92; C: 1; D: -6; E: i
CN(C)CC(=O)N[C@H]1CC[C@@H](CC(=O)NCc2ccc(Cl)cc2)O[C@@H]1CO
  A: x; B: x; C: x; D: -2; E: x
C[C@@H]1CN([C@H](C)CO)C(=O)c2cc(N(C)C)ccc2O[C@@H](C)CCCCO[C@H]1CN(C)C(=O)CCC(F)(F)F
  A: x; B: x; C: x; D: 9; E: x
O=C(CCN1C(=O)/C(=C/c2ccccc2)SC1=S)NC1CCS(=O)(=O)C1 (configuration not stated)
  A: 18; B: 99; C: 0; D: -8; E: i
O=C(CN1C(=O)/C(=C/c2ccco2)SC1=S)Nc1ccc(O)c(C(=O)O)c1
  A: -15; B: 101; C: 81*; D: -8; E: +
CC(C(=O)Nc1ccc(C(=O)O)c(O)c1)N1C(=O)/C(=C\c2ccco2)SC1=S (configuration not stated)
  A: -15; B: 98; C: 100*; D: -9; E: +
CC(C(=O)N(C)C1CCS(=O)(=O)C1)N1C(=O)/C(=C/c2ccco2)SC1=S (configuration not stated)
  A: -8; B: 103; C: 33; D: -15; E: i
O=C(CN1C(=O)/C(=C/c2ccco2)SC1=S)NC1CCS(=O)(=O)C1 (configuration not stated)
  A: 26; B: -6.6*; C: 74*; D: 9; E: +
O=C(CCCN1C(=O)/C(=C\c2ccco2)SC1=S)Nc1ccc(O)cc1C(=O)O
  A: 24; B: 124; C: x; D: -11; E: x
COC(=O)[C@@H]1[C@@H](CO)[C@@H]2Cn3c(cccc3=O)[C@@H]2N1C(=O)C1CCCCC1
  A: x; B: x; C: x; D: 2; E: x
CO[C@H]1CN(C)C(=O)c2cc(NC(=O)Nc3c(C)noc3C)ccc2OC[C@H](C)N(CC2CC2)C[C@H]1C
  A: x; B: x; C: x; D: -8; E: x
Cc1cc(C=C2C(=O)c3ccccc3C2=O)c(C)n1-c1ccc(Cl)cc1
  A: -16; B: 96; C: 63*; D: x; E: i
N#C/C(=C\c1ccc(Sc2ccc(Cl)cc2)o1)c1nc2ccccc2[nH]1
  A: -45; B: 109; C: 58*; D: x; E: +
N#C/C(=C\c1ccc(Sc2nc3ccccc3[nH]2)o1)c1ccccc1
  A: -73; B: x; C: -8; D: -14; E: i
Cc1ccn(C)c(=N)c1
  A: -89; B: 97; C: active; D: -6; E: +
Cc1ccc(C)c(N)c1
  A: 12; B: 101; C: x; D: -2; E: x
C[C@H](CO)N1C[C@H](C)[C@@H](CN(C)S(C)(=O)=O)Oc2ccc(NS(=O)(=O)c3ccc(F)cc3)cc2C1=O
  A: x; B: x; C: x; D: -2; E: x
COC(=O)c1ccccc1NC(=O)CC(=O)Nc1ccccc1C(=O)OC
  A: -6; B: 102; C: -13; D: -10; E: i
COC(=O)c1ccccc1NC(=O)Cc1nc(-c2ccccc2)sc1-c1ccc(C)cc1
  A: -19; B: 99; C: active; D: x; E: +
O=C(COc1ccc(Br)cc1)Nc1ccccc1C(=O)N1CCOCC1
  A: 1; B: 98; C: 0; D: -4; E: i
COc1ccc(OCC(=O)Nc2ccccc2C(=O)N2CCOCC2)cc1
  A: -11; B: 104; C: active; D: -6; E: +
COc1ccc(CNC(=O)C(c2ccco2)N(C(=O)Cc2cccs2)c2cccnc2)cc1 (configuration not stated)
  A: 6; B: 96; C: 77*; D: x; E: i
O=c1oc2ccccc2c2oc3cc(O)c(O)cc3c12
  A: 19; B: 99; C: 101*; D: x; E: +
CC(C)NC(=O)N(C)C[C@@H]1Oc2ccc(NC(=O)CCCN(C)C)cc2C(=O)N([C@H](C)CO)C[C@H]1C
  A: x; B: x; C: x; D: 11; E: x
COc1ccc(NCc2ccc([N+](=O)[O-])s2)c(OC)c1
  A: 9; B: 95; C: 73*; D: x; E: +
COc1ccc(NCc2ccc([N+](=O)[O-])s2)cc1
  A: 8; B: 93; C: 1; D: x; E: i
C/C(=N\OC(=O)c1cccc(C(F)(F)F)c1)c1sc(-c2ccccc2)nc1C
  A: -11; B: 78*; C: 0; D: -5; E: i
C/C(=N\OC(=O)c1cccc(C)c1)c1sc(-c2ccccc2)nc1C
  A: 2; B: -28*; C: 7; D: -9; E: i
O=C1c2ccccc2CC1Sc1nnc(-c2ccncc2)o1 (configuration not stated)
  A: -9; B: x; C: 4.2*; D: -19; E: +

Pemphigus Ab inh, entries above that show a hit
Keys – A = MLLE-PAM2 inh; B = Pemphigus Ab inh; C = eIF4H inh; D = Yeast UUG start; E = PABP FP inh
O=C(CN1C(=O)/C(=C/c2ccco2)SC1=S)NC1CCS(=O)(=O)C1 (configuration not stated)
  A: 26; B: -6.6*; C: 74*; D: 9; E: +
C/C(=N\OC(=O)c1cccc(C(F)(F)F)c1)c1sc(-c2ccccc2)nc1C
  A: -11; B: 78*; C: 0; D: -5; E: i
C/C(=N\OC(=O)c1cccc(C)c1)c1sc(-c2ccccc2)nc1C
  A: 2; B: -28*; C: 7; D: -9; E: i

(listing goes on)
Keys – A = MLLE-PAM2 inh; B = Pemphigus Ab inh; C = eIF4H inh; D = Yeast UUG start; E = PABP FP inh
C[C@H]1CN([C@@H](C)CO)C(=O)Cc2cc(NC(=O)Nc3cccc4ccccc34)ccc2O[C@H]1CN(C)C(=O)Nc1ccc2c(c1)OCO2
  A: x; B: x; C: x; D: -10; E: x
C[C@@H]1CN([C@H](C)CO)C(=O)Cc2cc(NC(=O)CCN3CCOCC3)ccc2O[C@@H]1CN(C)C(=O)Nc1ccccc1
  A: x; B: x; C: x; D: -10; E: x
O=C(/C=C/c1ccc(Br)o1)Nc1nccs1
  A: -1; B: 97; C: 57*; D: x; E: +
Cc1cc(C(=O)NC2Cc3ccccc3C2)c(C)o1
  A: 2; B: x; C: 96*; D: x; E: +
Cc1ccccc1S(=O)(=O)N1CCCCN2[C@H](CO)[C@H](c3ccc(-c4ccccc4)cc3)[C@H]2C1
  A: x; B: x; C: x; D: 9; E: x
Cc1ccccc1N1CCN(C2=NC(=O)/C(=C/c3cn[nH]c3-c3ccccc3)S2)CC1
  A: -3; B: 133; C: u; D: x; E: +
O=C1N=C(N2CCCC2)S/C1=C\c1cn[nH]c1-c1ccccc1
  A: x; B: x; C: -9; D: x; E: i
COCCNC(=S)N(c1ccccc1)C(C)C
  A: -13; B: 105; C: 2.5*; D: -12; E: i
C[C@@H]1CCCCO[C@H](CN(C)CC2CCCCC2)[C@H](C)CN([C@H](C)CO)C(=O)c2cc(NS(C)(=O)=O)ccc2O1
  A: x; B: x; C: x; D: 26; E: x
Nc1ccc2nn(-c3cccc4ccccc34)nc2c1
  A: -22; B: 100; C: 91*; D: x; E: i
O=[n+]1c2c(n([O-])c3cc(F)c(F)cc31)CCCC2
  A: 16; B: 82; C: 66*; D: -11; E: i
CC(C)CC#Cc1ccc2c(c1)O[C@@H](CN(C)Cc1ccccn1)[C@@H](C)CN([C@@H](C)CO)S2(=O)=O
  A: x; B: x; C: x; D: -16; E: x
O=C(Nc1ccc(C(F)(F)F)cc1-c1ccccc1)c1ccccc1
  A: 1; B: 65*; C: 1; D: -11; E: i
O=C(Nc1ccccc1-c1ccccc1)c1cccc(C(F)(F)F)c1
  A: 5; B: 88; C: -2; D: x; E: i
COc1ccccc1-n1c(N)c(C(N)=O)sc1=S
  A: 41*; B: x; C: 1; D: -16; E: i
Cc1cccc(S(=O)(=O)c2c(N)n(/N=C/c3ccccc3)c3nc4ccccc4nc23)c1
  A: -12; B: 89*; C: -9; D: -6; E: i
Nc1c(S(=O)(=O)c2ccccc2)c2nc3ccccc3nc2n1/N=C/c1cccc(O)c1
  A: 7; B: 91; C: -2; D: -7; E: i
CCOC(=O)c1[nH]cnc1N=Nc1c(O)ccc2ccccc12
  A: 51*; B: 97; C: u; D: x; E: i
CCOc1ccc(/C(O)=C2/C(=O)C(=O)N(c3cc(C)on3)C2c2ccc(C(=O)OC)cc2)cc1 (configuration not stated)
  A: 1; B: -31*; C: 3; D: -13; E: i
CN(C)CCCNC(=O)C[C@H]1CC[C@@H]2[C@@H](COc3ccc(NC(=O)c4cccc(F)c4)cc3C(=O)N2C)O1
  A: x; B: x; C: x; D: -2; E: x
O=C(C1CCN(C2CCN(C/C=C/c3ccccc3)CC2)CC1)N1CCOCC1
  A: -8; B: 108; C: 56*; D: -7; E: +
Nc1n[nH]c(=S)n1/N=C1/C(=O)Nc2ccccc21
  A: 45*; B: 97; C: 38; D: x; E: i
